Reference: article PMC12511262 (European Journal of Clinical Pharmacology, 2025)

Conditions: steady state
[1] = observed plasma concentrations, all samples

For CC(C)(C)c1cc(NC(=O)Nc2ccc(-c3cn4c(n3)sc3cc(OCCN5CCOCC5)ccc34)cc2)no1 [quizartinib], the “DV Drug concentration at time t, Mean” value [1] was 129.08, the “DV Drug concentration at time t, Median” value [1] was 135.00 and the “Mean concentration at predose” value (plasma, predose, mean (SD)) was 82 (41) ng/mL.
